Some of the results follow.
T1: LIN28A (human?, UniProt Q9H9Z2 1-209)
T1 sequence: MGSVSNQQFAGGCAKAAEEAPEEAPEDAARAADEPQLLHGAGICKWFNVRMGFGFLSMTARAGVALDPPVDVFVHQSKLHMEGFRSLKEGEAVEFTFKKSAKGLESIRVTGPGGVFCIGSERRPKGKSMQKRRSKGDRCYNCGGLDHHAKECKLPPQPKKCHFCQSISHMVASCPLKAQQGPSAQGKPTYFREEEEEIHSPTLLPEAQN

T2: CIRBP (Homo sapiens, UniProt Q14011 1-172)
T2 sequence: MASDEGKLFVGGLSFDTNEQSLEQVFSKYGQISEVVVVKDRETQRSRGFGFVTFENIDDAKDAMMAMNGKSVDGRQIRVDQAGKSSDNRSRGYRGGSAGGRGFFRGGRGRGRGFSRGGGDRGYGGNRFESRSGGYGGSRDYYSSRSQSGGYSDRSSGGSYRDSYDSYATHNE

T3: DHX36 (Homo sapiens, UniProt Q9H2U1 1-1008)
T3 sequence: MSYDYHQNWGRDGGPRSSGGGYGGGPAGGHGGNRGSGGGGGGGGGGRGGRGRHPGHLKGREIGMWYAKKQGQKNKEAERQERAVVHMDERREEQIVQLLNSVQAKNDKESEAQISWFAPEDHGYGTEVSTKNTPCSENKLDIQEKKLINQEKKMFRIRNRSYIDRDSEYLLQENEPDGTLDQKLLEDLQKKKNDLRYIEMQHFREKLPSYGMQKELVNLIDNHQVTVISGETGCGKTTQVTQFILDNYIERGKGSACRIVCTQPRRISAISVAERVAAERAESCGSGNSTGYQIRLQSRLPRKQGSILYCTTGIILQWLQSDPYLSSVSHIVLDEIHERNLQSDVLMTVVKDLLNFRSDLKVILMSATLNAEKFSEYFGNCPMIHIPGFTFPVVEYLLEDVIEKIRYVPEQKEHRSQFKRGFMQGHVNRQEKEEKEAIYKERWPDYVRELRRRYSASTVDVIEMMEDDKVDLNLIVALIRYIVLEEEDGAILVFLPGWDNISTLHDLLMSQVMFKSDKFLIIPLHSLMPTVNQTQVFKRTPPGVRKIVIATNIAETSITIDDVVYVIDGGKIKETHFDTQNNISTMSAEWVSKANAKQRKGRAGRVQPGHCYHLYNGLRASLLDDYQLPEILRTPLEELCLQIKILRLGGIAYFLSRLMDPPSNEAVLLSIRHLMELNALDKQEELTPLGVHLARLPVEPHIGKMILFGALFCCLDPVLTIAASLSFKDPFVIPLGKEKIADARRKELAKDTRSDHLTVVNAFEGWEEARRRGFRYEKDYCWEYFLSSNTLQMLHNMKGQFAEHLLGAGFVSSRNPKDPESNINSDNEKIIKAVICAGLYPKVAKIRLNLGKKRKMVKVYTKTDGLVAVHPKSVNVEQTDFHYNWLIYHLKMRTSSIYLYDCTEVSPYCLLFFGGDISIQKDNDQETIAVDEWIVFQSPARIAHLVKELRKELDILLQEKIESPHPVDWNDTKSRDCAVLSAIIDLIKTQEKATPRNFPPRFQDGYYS

B1: hsa-mir-23a (structured_RNA)
RNA: GGGAAGGUAUGGAUACUUGACGACAGAAGGUGUACGAAGUUUCAGCGGAUUUGCUUCCUGUCACAAAUCAGCUGAAGCUUCGUGCAC
B2: hsa-mir-943 (structured_RNA)
RNA: GGGAACUAGAAUGGAUUGAAGCUUGCGAGGUGUACGAAGUUUCAGCUCACUGCUGCUGGCGCCCUGAGCUGAAGCUUCGUGCAC
B3: hsa-mir-518d (structured_RNA)
RNA: GGGAAACCUAUAGGGAGGGUUACUUCGAGGUGUACGAAGUUUCAGCUUCUGUUGUCUGAAAGAAACCAAGCUGAAGCUUCGUGCAC
B4: hsa-mir-2115 (structured_RNA)
RNA: GGGAAACGAAUGUUCGCAGCGAAAGGUCGGUGUACGAAGUUUCAGCGAUGGAGGAAUCACAUGAAUUCAUCGCUGAAGCUUCGUGCAC
B5: hsa-mir-6746 (structured_RNA)
RNA: GGGAAGGGAGCGCUAAAUCGAAUCUCCCGGUGUACGAAGUUUCAGCCCUGGAGAGCUGCUGUCUCCAGGCUGAAGCUUCGUGCAC
B6: hsa-mir-6777 (structured_RNA)
RNA: GGGAAAGAUUGCCAAGGGGAUCGGUCCUGGUGUACGAAGUUUCAGCUGGUGGAGAUGGAGAGCCCUGAGCCUCCAGCUGAAGCUUCGUGCAC
B7: hsa-mir-548d-2 (structured_RNA)
RNA: GGGAAUUUUAUCGAGGUGAAACGAAUCGGGUGUACGAAGUUUCAGCUUUGCCAUUGAAAGUAAUGGCAAAGCUGAAGCUUCGUGCAC
B8: hsa-mir-1248 (structured_RNA)
RNA: GGGAAGUCGGGAAAUUGAUUUACAUCCGGGUGUACGAAGUUUCAGCAAAUUGCAGACACUAGGACCAUGUCUUGGUUUUUGCAAUAAUGGCUGAAGCUUCGUGCAC
B9: hsa-mir-329-2 (structured_RNA)
RNA: GGGAAAGAAUUGUCGAGGACGCCGGUCCGGUGUACGAAGUUUCAGCUGUUUCUUUAUUGAGGACGAAACAGCUGAAGCUUCGUGCAC
B10: hsa-mir-3171 (structured_RNA)
RNA: GGGACCGAGGUUGACCGGCUAUGUACCUGGUGUACGAAGUUUCAGCUAUCUAUAUAUAUGUGUAGCUGAAGCUUCGUGCAC
B11: hsa-mir-3943 (structured_RNA)
RNA: GGGAAGAUCCGACGAGGGCUUCCCAAAUGGUGUACGAAGUUUCAGCGGCGUGGACAACUUGCUGCUGAAGCUUCGUGCAC
B12: hsa-mir-3162 (structured_RNA)
RNA: GGGACAUAGAGUGAUUGGGCUAUACCGAGGUGUACGAAGUUUCAGCGGGAGCAUGAACAAUGUUUCUCACUCCCGCUGAAGCUUCGUGCAC
B13: hsa-mir-4270 (structured_RNA)
RNA: GGGAAGCAGGGUCGUACACCAGUUAUUGGGUGUACGAAGUUUCAGCGGGCAGAAAUAGAUGGCCUGCUGAAGCUUCGUGCAC
B14: hsa-mir-106b (structured_RNA)
RNA: GGGACGCGCGGACGCAAUACAGAAAUAAGGUGUACGAAGUUUCAGCGCAGAUAGUGGUCCUCUCCGUGCUACCGCGCUGAAGCUUCGUGCAC
B15: hsa-mir-4427 (structured_RNA)
RNA: GGGACCUUUAGGACAAUUUGAACCAGGCGGUGUACGAAGUUUCAGCUAGACAAUGGUUUCAUCAUUUCGUCUGGCUGAAGCUUCGUGCAC
B16: hsa-mir-4466 (structured_RNA)
RNA: GGGAAUUGACGUGAUCAUACACGGUGCUGGUGUACGAAGUUUCAGCGGGGUAGAAGCCACCCGGCUGAAGCUUCGUGCAC
B17: hsa-mir-552 (structured_RNA)
RNA: GGGAUUAGUAUCAUGAAAGACGAUGGCGGGUGUACGAAGUUUCAGCUGUUGGUUGAAGAUGCCUUUCAACAGCUGAAGCUUCGUGCAC
B18: hsa-mir-550a-2 (structured_RNA)
RNA: GGGAAUUGAUGCUGGACGACGUACUCAAGGUGUACGAAGUUUCAGCAGCCCUGUUGUUGUCAGAUAGUGUGCUGAAGCUUCGUGCAC
B19: hsa-mir-421 (structured_RNA)
RNA: GGGAAUGACUAGUCGCGUUAGAUGCGGGGGUGUACGAAGUUUCAGCGAAUGAAAAAAUGAAUCAUCGCUGAAGCUUCGUGCAC
B20: hsa-mir-514a-2_514a-3 (structured_RNA)
RNA: GGGACUCUAUGGCACCGAUAUGAUACCUGGUGUACGAAGUUUCAGCCAAUCAUGUAUAACUAAAUUUGAUUGGCUGAAGCUUCGUGCAC
B21: hsa-mir-6742 (structured_RNA)
RNA: GGGCCAGUCGAACUAGAGCCAACCGGUCGGUGUACGAAGUUUCAGCAGCUGUUGGCCAUGGCGACAACACCUGCUGAAGCUUCGUGCAC
B22: hsa-mir-6846 (structured_RNA)
RNA: GGGACCCCACGAGAUGAUAUCGACGGCUGGUGUACGAAGUUUCAGCUAGAGUAGGAGAGCCCACUGAGCUGAAGCUUCGUGCAC
B23: hsa-mir-517c_517b (structured_RNA)
RNA: GGGAAAGGUCAAACGGUAUUCUCGUACCGGUGUACGAAGUUUCAGCCUGUCUGUUGUCUAAGAAAAGAUCGGCUGAAGCUUCGUGCAC
B24: hsa-mir-3074 (structured_RNA)
RNA: GGGAAGUGUCCAUAUAUACCUGGAUAGGGGUGUACGAAGUUUCAGCGCCAGUGUGUAAAAUGAGAACUGAUAGCUGAAGCUUCGUGCAC
B25: hsa-mir-6818 (structured_RNA)
RNA: GGGACGUUUUAGUGCUAGACCGUGCUUCGGUGUACGAAGUUUCAGCAGCAUCUGAAUGGGUACAGUUGUUGUGCUGAAGCUUCGUGCAC
B26: hsa-mir-526a-2 (structured_RNA)
RNA: GGGACGAAAAGCAUUGCGGCAAGAUAUAGGUGUACGAAGUUUCAGCCUGUUGAAAGAAAAGGCUGAAGCUUCGUGCAC

Biological target: T1, LIN28A
Assay: FOREST: bead pull-down of RNA structure library v1, barcode microarray; U1A/LIN28A: 20 mM HEPES pH 7.5, 80 mM KCl, 20 mM NaCl, 10% glycerol, 2 mM DTT, 0.1 ug/uL BSA, 4 C; BG4/CIRBP/DHX36: 10 mM Tris-HCl pH 7.5, 100 mM KCl (or LiCl),; high values mean tight binding

Row | Binder | binding signal [z-score]
1 | B1 | 0.399
2 | B2 | 0.393
3 | B3 | 0.392
4 | B4 | 0.391
5 | B5 | 0.391
6 | B6 | 0.387
7 | B7 | 0.387
8 | B8 | 0.385
9 | B9 | 0.384
10 | B10 | 0.384
11 | B11 | 0.383
12 | B12 | 0.383
13 | B13 | 0.38
14 | B14 | 0.377
15 | B15 | 0.377
16 | B16 | 0.374
17 | B17 | 0.374
18 | B18 | 0.371
19 | B19 | 0.359
20 | B20 | 0.359
21 | B21 | 0.358
22 | B22 | 0.358
23 | B23 | 0.357
24 | B24 | 0.354
25 | B25 | 0.352
26 | B26 | 0.351

Biological target: T2, CIRBP
Assay: as above

Row | Binder | binding signal [z-score]
27 | B1 | 0.686
28 | B2 | 0.935
29 | B3 | 1.08
30 | B4 | 2.05
31 | B5 | -0.918
32 | B6 | 0.611
33 | B7 | 1.34
34 | B8 | 2.32
35 | B9 | -0.0865
36 | B10 | 0.177
37 | B11 | -0.592
38 | B12 | 1.46
39 | B13 | 0.0138
40 | B14 | 0.756
41 | B15 | 1.07
42 | B16 | 1.05
43 | B17 | 0.962
44 | B18 | 0.183
45 | B19 | 0.857
46 | B20 | -0.106
47 | B21 | -0.588
48 | B22 | -0.327
49 | B23 | 0.14
50 | B24 | 0.369
51 | B25 | 0.42
52 | B26 | 0.302

Biological target: T3, DHX36
Assay: as above

Row | Binder | binding signal [z-score]
53 | B1 | -0.263
54 | B2 | 0.0801
55 | B3 | 0.232
56 | B4 | 0.332
57 | B5 | -0.565
58 | B6 | 1.29
59 | B7 | -0.184
60 | B8 | 0.51
61 | B9 | 0.0667
62 | B10 | -0.374
63 | B11 | -0.373
64 | B12 | 0.32
65 | B13 | -1.01
66 | B14 | -0.0714
67 | B15 | -0.346
68 | B16 | 1.04
69 | B17 | 1.26
70 | B18 | 0.32
71 | B19 | 0.216
72 | B20 | -1.16
73 | B21 | 0.489
74 | B22 | -0.501
75 | B23 | -0.0295
76 | B24 | -0.958
77 | B25 | -0.437
78 | B26 | 1.51

— PMC7723054
